# Results as given in patent publication US20240390376A1, “METHOD FOR PREVENTING ADVERSE PREGNANCY OUTCOMES DUE TO USE OF SELECTIVE SEROTONIN REUPTAKE INHIBITORS (SSRI) DURING GESTATION” (Wisconsin Alumni Research Foundation, priority 2023, published 2024).
# Tested on: SERT-null mice (Sert-/-)
# Experiment: Effects of fluoxetine in serotonin transporter null mice (FIGS. 3A-3C)
# Conditions: mutant mouse with genetic ablation of SERT
smiles,measurement,value
CNCCC(Oc1ccc(C(F)(F)F)cc1)c1ccccc1 (stereo not shown) [fluoxetine],effect of fluoxetine treatment on pregnancy outcomes,not affected
